Values of other authors as cited in patent US10988812B2, “Fusion genes associated with progressive prostate cancer” (UNIVERSITY OF PITTSBURGH - OF THE COMMONWEALTH SYSTEM OF …, priority 2013, dated 2021).

System: non-small cell lung cancer positive for EML4-ALK
Conditions: in most patients; cited from earlier work

Compound: C[C@@H](Oc1cc(-c2cnn(C3CCNCC3)c2)cnc1N)c1c(Cl)ccc(F)c1Cl [Crisotinib]
- shrinkage of tumor mass: at least 30%
